## Apparent affinities of Ab-91 variants for a coronavirus HR2 peptide

All variants were tested on one target, the spike HR2 peptide PDVDLGDISGINAS (SARS-CoV-2).

Parent: Ab-91, a human scFv built as VL, a (GGGGS)3 linker, VH. Only the CDRs of the heavy chain vary.
VL: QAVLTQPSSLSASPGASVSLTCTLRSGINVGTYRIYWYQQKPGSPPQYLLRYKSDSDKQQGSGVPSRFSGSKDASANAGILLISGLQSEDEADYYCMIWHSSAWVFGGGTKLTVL
VH: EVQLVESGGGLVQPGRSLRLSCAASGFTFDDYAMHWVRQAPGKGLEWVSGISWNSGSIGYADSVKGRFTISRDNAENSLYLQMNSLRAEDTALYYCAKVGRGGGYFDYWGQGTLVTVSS

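Phage display of a naive human antibody library on the peptide gave the parent. The library (AAYL51) carries one to three amino acid substitutions per variant, with no insertions or deletions. AlphaSeq pools MATa yeast showing the antibodies with MATalpha yeast showing the peptide. The frequency of each diploid, read from paired DNA barcodes, reflects how well the two displayed proteins bind. The ratio of observed to expected reads was calibrated, replicate by replicate, on BCL2-family standards whose Kd was known from biolayer interferometry. There are three technical replicates.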

Each variant is given by its three heavy chain CDRs, as the data file delimits them; those of the parent are GFTFDDYAMH, GISWNSGSIGYADSVK, VGRGGGYFDY. This list gathers variants with a substitution at T28 (VH, numbered from residue 1). Affinities are written as log10 Kd with Kd in nM; a lower number is a better binder. The mean shown is taken over the replicates in which the pair was detected. "nd" marks a missing value. The strain was present, yet no cells mated with the target were sequenced in any replicate, which points to weak or no binding.

For GFEEDDYAMH | SISWNSGSIGYADSVK | VGRGGGYFDY, the assay gave 4.31 (1 of 3 replicates). Variant GFWFDDYAMH | GISWNSGSQGEADSVK | VGRGGGYFDY gave 5.31 (1 of 3 replicates). With GFFFDDYAMH | GISWNSGSIGHAISVK | VGRGGGYFDY the result was 4.67 (1 of 3 replicates). Variant GFYFDDYAMH | GMSWNSGSIGYADSVK | VGRGPGYFDY showed nd (0 of 3 replicates). With GFCFDDYAMH | GESWNSYSIGYADSVK | VGRGGGYFDY the result was 4.98 (1 of 3 replicates).

Variant GFVFGDYAMH | GISWNSGSIGYADSVK | VGRGGGYFDY gave 4.18 (2 of 3 replicates). Variant GFEFDDYAMH | IISWNSGSIGWADSVK | VGRGGGYFDY showed 4.11 (1 of 3 replicates). Variant GFFFDDYAMH | GISWNSGSIGYALSVK | VRRGGGYFDY gave 3.15 (1 of 3 replicates). With GFVFDDYALH | GISWNSGSIGYADSVK | VGRGGGYNDY the result was 4.79 (1 of 3 replicates). With GFNFDDYGMH | GISWNSGSIGYADSVK | VGRGGGCFDY the result was 1.68 (3 of 3 replicates).

Variant GFYFDDYAMH | GISWMSGRIGYADSVK | VGRGGGYFDY showed nd (0 of 3 replicates). For GFRFDDYAMH | GISRNSGSIGYADSSK | VGRGGGYFDY, the assay gave 2.48 (1 of 3 replicates). Variant GTVFDDYAMH | GISWNSGSIGYADSVK | VGRGGGYFDP showed nd (0 of 3 replicates). With GFLFDDYAMH | GITWNSFSIGYADSVK | VGRGGGYFDY the result was 5.17 (3 of 3 replicates). Variant GFFFKDYAMH | GISWNSGSIGYADSVK | VGRGGGYQDY gave 1.61 (3 of 3 replicates).

With RFFFDDGAMH | GISWNSGSIGYADSVK | VGRGGGYFDY the result was 5.09 (3 of 3 replicates). Variant GFWFDDYAMH | GISWKSGSIGYADSVK | VGRGGGYFDY showed nd (0 of 3 replicates). Variant GFVFDDYAMH | GISWTSGSIGYADSVK | GGRGGGYFDY showed 4.48 (2 of 3 replicates). Variant GFEWDDYACH | GISWNSGSIGYADSVK | VGRGGGYFDY gave 4.84 (1 of 3 replicates). With GFNFCDYAMH | SISWNSGSIGYADSVK | VGRGGGYFDY the result was 4.50 (1 of 3 replicates).

Variant GFKFDDYAMH | GISMNSFSIGYADSVK | VGRGGGYFDY gave 0.90 (3 of 3 replicates). For GFKFDDYAMP | GISWNSGSIGYADSVK | VGRGGGKFDY, the assay gave 4.29 (2 of 3 replicates). For GFSFDDYAMH | GISWNSGIIGYADSVK | VGRGAGYFDY, the assay gave nd (0 of 3 replicates). Variant GFSFDAYAMH | GISWNSGSIGYADSVK | VGRGGGYFDY gave 1.54 (3 of 3 replicates). Variant GFQFDDYAMH | GISWNSGSIGYADSVK | VGRGGGWFDY gave 4.41 (3 of 3 replicates).

Variant GFGFDDYAMH | GISWNCGSIGYADSVK | VGAGGGYFDY showed nd (0 of 3 replicates). Variant GFEFDDYQMH | GISQNSGSIGYADSVK | VGRGGGYFDY gave 5.23 (3 of 3 replicates). Variant GFFFDRYAMH | GISWNSGSIGYADSGK | VGRGGGYFDY gave 5.23 (2 of 3 replicates). Variant GFQFDDRAMH | GISWNSGSIDYADSVK | VGRGGGYFDY gave 3.61 (2 of 3 replicates). Variant GFRFDDYAMH | GISWNSGSCGYADSVK | VGRGGGKFDY showed 2.71 (1 of 3 replicates).

With GFYFDDYAMH | GISWNSGHIGYADSVK | VGRGGGYFGY the result was 3.65 (1 of 3 replicates). Variant GFAFDDYAMH | YISWNSGSIGYADSVK | VGRGGGQFDY showed 3.91 (1 of 3 replicates). For GFCFDDYAMH | GISWNSGSIGHADSVK | VGRGGGYFDY, the assay gave nd (0 of 3 replicates). Variant GFSFDDYAMH | GISWNSGSIGYADSVK | VGRGGGYFDY gave 3.61 (1 of 3 replicates). Variant GFVFDDIAMT | GISWNSGSIGYADSVK | VGRGGGYFDY showed 4.44 (1 of 3 replicates).

Variant GFKFDDYAMH | GISWNSGSGGYADSVK | VGRHGGYFDY showed 2.19 (3 of 3 replicates). With GFDFDDYIMH | GISWNSGSIGYADIVK | VGRGGGYFDY the result was 5.12 (1 of 3 replicates).

The 2 strongest on average among those seen in every replicate, once more:

CDR-H1,CDR-H2,CDR-H3,mean log10 Kd (nM),replicates with signal
GFKFDDYAMH,GISMNSFSIGYADSVK,VGRGGGYFDY,0.90,3/3
GFSFDAYAMH,GISWNSGSIGYADSVK,VGRGGGYFDY,1.54,3/3

Nonspecific signal, from three strains lacking the peptide, appeared in 21% of pairings of library AAYL51, centred on 4.54 (5% of these signals below 3.26); values are not corrected for it. In this assay the parent's reference entry averaged 1.86; its copy inside this library read 0.88.

From the AlphaSeq antibody data of Engelhart et al. 2022 (doi:10.1038/s41597-022-01779-4), copy in the FLAb collection.